## AlphaSeq binding of Ab-14 heavy chain variants to a spike HR2 peptide

Data: MIT Lincoln Laboratory AlphaSeq set, Li et al. 2023, doi:10.1038/s41467-023-39022-2, as distributed in FLAb.

All variants were tested on one target, the spike HR2 peptide PDVDLGDISGINAS (SARS-CoV-2).

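Phage display of a naive human antibody library on the peptide gave the parent. Designed CDR sequences, proposed from the first random library and measured here. Group labels follow the data file (Ctrl: baseline library sampled from a position-specific scoring matrix, with some repeated check sequences; GPLM: also part of the Gaussian process libraries; Gen: genetic algorithm; a sequence that several methods proposed may carry one label only). Affinity was read by AlphaSeq, a pooled yeast mating assay with surface-displayed partners. After mating in shaken culture at 30 °C for 16 h, diploids were selected and their barcode pairs sequenced. The ratio of observed to expected reads was calibrated, replicate by replicate, on BCL2-family standards whose Kd was known from biolayer interferometry. Mating was done six times.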

Parent: Ab-14, a human scFv built as VH, three GGGGS repeats, VL. Only the CDRs of the heavy chain vary.
VH: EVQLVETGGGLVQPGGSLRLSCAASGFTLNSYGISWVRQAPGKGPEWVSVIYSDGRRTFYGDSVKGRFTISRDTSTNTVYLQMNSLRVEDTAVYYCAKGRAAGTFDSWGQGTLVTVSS
VL: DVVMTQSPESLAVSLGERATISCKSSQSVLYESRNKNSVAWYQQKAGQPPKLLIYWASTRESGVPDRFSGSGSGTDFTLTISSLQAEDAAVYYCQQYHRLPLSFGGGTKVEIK

Positions count from residue 1 of the parent VH; T58L puts L in place of T. Numbers give log10(Kd / nM), so 0 is 1 nM and 3 is 1 µM. Smaller is tighter. Replicates are averaged; those with no signal do not enter the mean. An entry "nd" has no value in the source: the pair was not observed among the diploids in that replicate. This suggests poor binding but is not conclusive.

changes | group | log10 Kd (nM) by replicate | mean log10 Kd (nM) | signal with controls
T58L F59Q R100K A101N | Ctrl | nd nd nd nd nd 3.22 | 3.22 | 0/18
T28D R56I G61A | Ctrl | 0.38 0.33 0.32 0.15 0.28 0.26 | 0.29 | 0/18
A101S D106N | Ctrl | nd nd nd nd nd nd | nd | 0/18
R56Y R100E A101I F105K | Ctrl | nd nd nd nd nd nd | nd | 0/18
F27E T28Q | Ctrl | nd nd 2.48 nd nd nd | 2.48 | 0/18
N30E R100E T104I | Ctrl | nd nd nd nd nd nd | nd | 0/18
T28N S53A R56L | Ctrl | nd nd nd nd nd nd | nd | 0/18
S31K G33S F59S | Ctrl | nd nd nd 1.40 nd nd | 1.40 | 1/18 (1.72)
T28D S35R R56I G61R G103F | Ctrl | nd nd nd nd nd nd | nd | 0/18
G26K T28K F59E | Ctrl | nd 1.47 nd nd nd nd | 1.47 | 0/18
L29I N30D G61D S63E G99D A102K S107N | Ctrl | nd nd nd nd nd nd | nd | 0/18
F27V G99C T104V D106F | Ctrl | nd nd nd nd nd nd | nd | 0/18
S53R R100T | Ctrl | nd nd nd nd nd nd | nd | 0/18
L29N F59A | Ctrl | nd nd nd nd nd nd | nd | 0/18
S31E R56W R100M S107N | Ctrl | nd nd nd nd 2.74 nd | 2.74 | 0/18
S31E R56M G99L A101S | Ctrl | nd nd nd nd nd nd | nd | 0/18
R56S F59A | Ctrl | 1.68 2.44 2.28 nd nd 2.02 | 2.11 | 0/18
S53A F59A | Ctrl | 0.06 -0.03 0.01 -0.30 -0.14 -0.18 | -0.09 | 2/18 (2.02)
S31K R56K F59G R100I A102Y | Ctrl | nd nd nd nd 2.60 nd | 2.60 | 0/18
G61K D62N R100D | Ctrl | nd 0.83 nd 1.74 2.24 1.73 | 1.64 | 0/18
T28W G61M R100A A101T | Ctrl | nd nd nd 0.94 0.55 nd | 0.75 | 0/18
G61S A101Q | Ctrl+GPLM_Gen | nd nd nd 0.75 nd nd; nd -0.50 0.04 -0.02 0.59 2.01 | 0.48 | 0/36
A101Q A102M S107D | Ctrl | nd nd nd nd nd nd | nd | 0/18
S63A G103T | Ctrl | nd nd nd nd nd nd | nd | 0/18
F27E R56E F59M | Ctrl | nd nd nd 2.36 nd 2.24 | 2.30 | 0/18
F27E T28N A101V F105K | Ctrl | nd nd nd nd nd nd | nd | 0/18
S31E A101N G103F | Ctrl | nd nd nd nd nd nd | nd | 0/18
T28N N30L R56M G103A D106I | Ctrl | nd nd nd nd nd nd | nd | 0/18
L29A R100D F105P | Ctrl | nd nd 2.25 nd nd nd | 2.25 | 0/18
K65R | Ctrl | nd nd nd nd nd nd | nd | 0/18
N30T G61Q D106S S107V | Ctrl | nd nd nd nd nd nd | nd | 0/18
G61A R100N A101V | Ctrl+GPLM_Gen | 1.88 0.98 0.97 1.79 0.00 1.10; 1.83 0.56 1.29 0.13 0.29 0.79 | 0.97 | 1/36 (1.40)
N30K A101V G103D D106T | Ctrl | nd nd nd nd nd nd | nd | 0/18
S31D S63N G99T A102P S107L | Ctrl | nd nd nd nd nd nd | nd | 0/18
F27Y G61S D106P | Ctrl | nd nd nd nd nd nd | nd | 0/18
Y52E R56K A101H G103Q | Ctrl | nd nd nd nd nd nd | nd | 0/18
L29I R100K A101N | Ctrl | 2.60 nd 1.34 nd 2.06 1.87 | 1.97 | 1/18 (2.56)
R56E R100T | Ctrl | 1.94 1.13 0.56 3.87 0.97 0.79 | 1.54 | 1/18 (1.63)
S31K A101W T104M | Ctrl | nd nd nd nd nd nd | nd | 0/18

A selection of 3 entries from above:

| changes | group | log10 Kd (nM) by replicate | mean log10 Kd (nM) | signal with controls |
|---|---|---|---|---|
| A101Q A102M S107D | Ctrl | nd nd nd nd nd nd | nd | 0/18 |
| L29N F59A | Ctrl | nd nd nd nd nd nd | nd | 0/18 |
| G61A R100N A101V | Ctrl+GPLM_Gen | 1.88 0.98 0.97 1.79 0.00 1.10; 1.83 0.56 1.29 0.13 0.29 0.79 | 0.97 | 1/36 (1.40) |

The authors' rule: three or more of the six replicates give a measured affinity, fewer mean a poor binder. A sequence measured in both rounds can read differently, since the two assays cover different ranges. Three control strains display no target. For all heavy chain designs, 1% of the pairings with them gave a signal, with a median of 2.08 and one signal in twenty below 0.84, so weak values seen in few replicates may be background. Also given: how often the same scFv was detected with the empty control strains, with their mean in brackets. A sequence that the file lists under several names has all its replicates listed entry by entry, parted by semicolons.